# scFv variants of Ab-14 (heavy chain) against a SARS-CoV-2 spike peptide

Antigen: PDVDLGDISGINAS, a 14-residue peptide of the SARS-CoV-2 spike HR2 region.

Ab-14 is the parent antibody, in scFv form: VH, then a (GGGGS)3 linker, then VL. The light chain is unchanged in all variants.
VH: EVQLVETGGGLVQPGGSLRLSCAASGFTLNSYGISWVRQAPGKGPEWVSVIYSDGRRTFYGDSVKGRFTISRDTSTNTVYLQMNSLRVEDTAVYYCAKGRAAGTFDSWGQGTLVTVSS
VL: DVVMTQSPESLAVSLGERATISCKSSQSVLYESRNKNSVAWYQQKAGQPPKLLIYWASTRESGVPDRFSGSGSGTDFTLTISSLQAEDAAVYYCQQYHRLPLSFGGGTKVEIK

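Phage display of a naive human antibody library on the peptide gave the parent. In library AAYL49, one, two or three CDR residues were substituted; doubles and triples were drawn at random. The assay is AlphaSeq: two haploid yeast populations carry antibody and antigen on their surface. The frequency of each diploid, read from paired DNA barcodes, reflects how well the two displayed proteins bind. Read counts were normalised to the haploid input and turned into Kd by a linear fit to BCL2-family pairs of known affinity, for each replicate. The assay was run in three technical replicates.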

Substitutions are numbered in sequence along the VH above, starting at 1 (not Kabat).
Every variant below is changed at G61 of the VH (sequential numbering).
Kd is apparent (estimated from mating counts) and averaged on the log scale over replicates with a signal. Smaller is tighter.
An entry "no signal" has no value in the source: the pair was not observed among the diploids in any replicate. This suggests poor binding but is not conclusive.
As a blank, each scFv also met three strains without target: over library AAYL49, 15% of these pairings were detected, typically at 11 µM and seldom below 680 nM.
For reference, the parent read 4.4 nM as the reference entry and 13 µM (one replicate of three) as a member of this library.

* F27W S31F G61T -> 100 nM (3 of 3 replicates)
* G61R D106Q S107D -> 510 nM (1 of 3 replicates)
* R56T G61N S63Y -> 78 nM (3 of 3 replicates)
* I34C F59V G61C -> no signal (0 of 3 replicates)
* R57D G61Y -> no signal (0 of 3 replicates)
* S31M G61H -> 2.8 nM (3 of 3 replicates)
* G61R K65W -> 270 nM (3 of 3 replicates)
* I34R G61K A101W -> 87 nM (3 of 3 replicates)
* Y60K G61S F105S -> no signal (0 of 3 replicates)
* R56E G61V A102Y -> no signal (0 of 3 replicates)
* G61F D62I A101E -> no signal (0 of 3 replicates)
* I34F R56A G61Y -> no signal (0 of 3 replicates)
* Y60A G61P T104Q -> no signal (0 of 3 replicates)
* S53L G61S S63T -> 6.6 µM (2 of 3 replicates)
* D54W G61V G99E -> no signal (0 of 3 replicates)
* N30L S53A G61A -> 890 pM (3 of 3 replicates)
* T28G G61Q D62Q -> 25 nM (3 of 3 replicates)
* T28M G61C A101S -> 28 nM (3 of 3 replicates)
* G61N D62V S107D -> 52 µM (2 of 3 replicates)
* R56A G61P S107A -> 180 nM (3 of 3 replicates)
* F59R G61P K65Y -> no signal (0 of 3 replicates)
* S53K G61C S63Q -> no signal (0 of 3 replicates)
* Y60M G61W R100C -> no signal (0 of 3 replicates)
* F27N G33N G61H -> 84 µM (2 of 3 replicates)
* I34H D54C G61Y -> 3.2 µM (1 of 3 replicates)
* T58Q G61A T104Q -> 3.0 nM (3 of 3 replicates)
* I34Y G61W R100M -> no signal (0 of 3 replicates)
* G26P G61S G99Y -> 7.5 nM (3 of 3 replicates)
* D54S G61C D62H -> no signal (0 of 3 replicates)
* G61T S63D R100N -> 1.2 nM (3 of 3 replicates)
* G61F V64I D106N -> no signal (0 of 3 replicates)
* G55L G61Q S63M -> 3.2 µM (1 of 3 replicates)
* Y32M G61S -> no signal (0 of 3 replicates)
* N30P D54Q G61K -> 2.9 µM (1 of 3 replicates)
* I34V T58N G61I -> 34 nM (3 of 3 replicates)
* F27D T28Q G61A -> 6.3 nM (3 of 3 replicates)
* S31E I51D G61H -> 9.3 µM (3 of 3 replicates)

A selection of 4 entries from above:

* N30L S53A G61A = 890 pM (3 of 3 replicates)
* T58Q G61A T104Q = 3.0 nM (3 of 3 replicates)
* S31M G61H = 2.8 nM (3 of 3 replicates)
* Y60M G61W R100C = no signal (0 of 3 replicates)

The measurements come from Engelhart et al. 2022 (doi:10.1038/s41597-022-01779-4) through the FLAb antibody collection.